This note sets out measurements from patent publication US20150258192A1, “COMPOSITIONS AND METHODS FOR PREVENTING OR TREATING CHRONIC LUNG ALLOGRAFT DYSFUNCTION (CLAD) AND IDIOPATHIC PULMONARY FIBROSIS (IPF)” (priority 2014, published 2015).

Test in all cases: Kinase Profiling Assay
Common to all, as to format: biochemical
Settings in all cases: peptide 100 μM

Experiment [1] concerns the target FGFR1(V561M)(h) (Homo sapiens, UniProt P11362, V561M). The method, then:
(§1) Every kinase activity measurement was conducted in duplicate.
(§2) Specifically, in these assays, a positively charged substrate is phosphorylated with a radiolabeled phosphate group from an ATP if the kinase is not inhibited by an inhibitor peptide. The positively charged substrate then is attracted to a negatively charged filter membrane, quantified with a scintillation counter, and compared to a 100% activity control.
(§3) In addition to determining the IC50 of the compound, the specificity of MK2 inhibitory peptides was assessed by examining activities of all 266 human kinases available for testing in the Millipore kinase profiling service (Table 1).

Experiment [2] deals with CK1γ1(h) (Homo sapiens, UniProt Q9HCP0). The method, then: as §1, §2, §3
For experiment [3], the target named is Fgr(h) (Homo sapiens, UniProt P09769). The method, then: as §1, §2, §3
The target in experiment [4] is T1, MKK7β(h) (Homo sapiens, UniProt O14733).
T1 construct: purchased Millipore
T1 sequence (O14733 1-419): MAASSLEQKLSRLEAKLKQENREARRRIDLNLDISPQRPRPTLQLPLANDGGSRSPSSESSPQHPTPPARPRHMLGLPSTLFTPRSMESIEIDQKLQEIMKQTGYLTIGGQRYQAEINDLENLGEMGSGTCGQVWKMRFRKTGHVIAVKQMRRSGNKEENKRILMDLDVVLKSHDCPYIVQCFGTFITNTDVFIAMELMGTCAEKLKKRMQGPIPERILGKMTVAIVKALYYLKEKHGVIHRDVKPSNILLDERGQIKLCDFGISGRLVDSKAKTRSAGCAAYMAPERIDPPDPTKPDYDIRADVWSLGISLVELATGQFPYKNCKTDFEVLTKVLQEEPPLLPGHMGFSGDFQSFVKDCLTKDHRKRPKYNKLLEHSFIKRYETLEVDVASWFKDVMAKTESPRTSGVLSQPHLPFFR
The method, then: as §1, §2, §3

Experiment [5] has as its target CK1γ2(h) (Homo sapiens, UniProt P78368). The method, then:
as §1, §2, §3

The target in experiment [6] is T2, JNK1α1(h) (Homo sapiens, UniProt P45983).
T2 construct: purchased Millipore
The method, then:
as §1, §2, §3

In experiment [7] the target is T3, GRK5(h) (Homo sapiens, UniProt P34947).
T3 construct: purchased Millipore
The method, then: as §1, §2, §3

Experiment [8] has as its target FGFR2(N549H)(h) (Homo sapiens, UniProt P21802, N549H). The method, then: as §1, §2, §3
In experiment [9] the target is CK2α2(h) (Homo sapiens, UniProt P19784). The method, then: as §1, §2, §3
Experiment [10] addresses PAK6(h) (Homo sapiens, UniProt Q9NQU5). The method, then:
as §1, §2, §3

Experiment [11] deals with Plk1(h) (Homo sapiens, UniProt P53350). The method, then:
as §1, §2, §3

Experiment [12] addresses CK1γ3(h) (Homo sapiens, UniProt Q9Y6M4). The method, then:
as §1, §2, §3

Experiment [13] concerns the target T4, IGF-1R(h) (Homo sapiens, UniProt P08069).
T4 construct: purchased Millipore
The method, then:
as §1, §2, §3

In experiment [14] the target is T5, Lck(h) (Homo sapiens, UniProt P06239).
T5 construct: purchased Millipore
The method, then: as §1, §2, §3

The target of experiment [15] is Abl(H396P)(h) (Homo sapiens, UniProt P00519, H396P). The method, then:
as §1, §2, §3

Experiment [16] concerns the target T6, PAR-1Bα(h) (Homo sapiens, UniProt Q7KZI7).
T6 sequence (Q7KZI7 1-725 isoform Q7KZI7-4): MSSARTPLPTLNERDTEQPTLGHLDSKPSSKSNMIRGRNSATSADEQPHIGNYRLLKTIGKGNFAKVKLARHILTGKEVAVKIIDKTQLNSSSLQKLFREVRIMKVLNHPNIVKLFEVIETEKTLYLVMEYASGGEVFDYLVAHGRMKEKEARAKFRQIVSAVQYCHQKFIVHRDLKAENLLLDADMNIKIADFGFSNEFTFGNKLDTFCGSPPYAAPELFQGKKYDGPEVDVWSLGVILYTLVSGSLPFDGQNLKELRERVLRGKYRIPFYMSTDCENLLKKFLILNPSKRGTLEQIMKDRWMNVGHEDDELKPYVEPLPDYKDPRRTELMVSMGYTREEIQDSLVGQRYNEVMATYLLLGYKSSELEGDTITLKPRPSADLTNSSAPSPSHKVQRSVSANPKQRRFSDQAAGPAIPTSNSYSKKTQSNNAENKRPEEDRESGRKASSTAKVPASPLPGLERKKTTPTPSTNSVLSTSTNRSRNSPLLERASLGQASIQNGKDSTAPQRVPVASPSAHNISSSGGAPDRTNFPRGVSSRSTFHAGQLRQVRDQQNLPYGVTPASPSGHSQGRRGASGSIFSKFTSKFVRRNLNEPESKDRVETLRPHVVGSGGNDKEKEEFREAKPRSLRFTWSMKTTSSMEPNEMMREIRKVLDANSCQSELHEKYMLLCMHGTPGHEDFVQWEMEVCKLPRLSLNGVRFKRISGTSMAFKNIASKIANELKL
The method, then:
as §1, §2, §3

Experiment [17] concerns the target PAK5(h) (Homo sapiens, UniProt Q9P286). The method, then: as §1, §2, §3
Experiment [18] deals with Abl(M351T)(h) (Homo sapiens, UniProt P00519, M351T). The method, then: as §1, §2, §3
In experiment [19] the target is c-RAF(h) (Homo sapiens, UniProt P04049). The method, then: as §1, §2, §3
Experiment [20] deals with T7, JAK2(h) (Homo sapiens, UniProt O60674).
T7 construct: purchased Millipore
The method, then: as §1, §2, §3

For experiment [21], the target named is PKA(h) (Homo sapiens, UniProt P17612). The method, then: as §1, §2, §3
The target in experiment [22] is PAK3(h) (Homo sapiens, UniProt O75914). The method, then:
as §1, §2, §3

Experiment [23] concerns the target T8, HIPK3(h) (Homo sapiens, UniProt Q9H422).
T8 construct: purchased Millipore
The method, then:
as §1, §2, §3

The target in experiment [24] is Abl(T315I)(h) (Homo sapiens, UniProt P00519, T315I). The method, then: as §1, §2, §3
The target in experiment [25] is CLK2(h) (Homo sapiens, UniProt P49760). The method, then: as §1, §2, §3
For experiment [26], the target named is T9, Aurora-A(h) (Homo sapiens, UniProt O14965).
T9 sequence (O14965 1-403): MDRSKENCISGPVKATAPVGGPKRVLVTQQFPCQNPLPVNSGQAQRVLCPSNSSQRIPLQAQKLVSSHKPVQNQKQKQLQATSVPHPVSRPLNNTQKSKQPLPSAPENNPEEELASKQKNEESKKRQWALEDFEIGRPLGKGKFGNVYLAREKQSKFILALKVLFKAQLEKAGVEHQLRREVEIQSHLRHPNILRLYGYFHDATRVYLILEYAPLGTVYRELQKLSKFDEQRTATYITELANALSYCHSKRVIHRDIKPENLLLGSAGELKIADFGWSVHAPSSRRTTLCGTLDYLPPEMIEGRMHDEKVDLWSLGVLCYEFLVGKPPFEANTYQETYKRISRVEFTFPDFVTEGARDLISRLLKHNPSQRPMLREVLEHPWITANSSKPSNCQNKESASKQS
The method, then: as §1, §2, §3

“HRRIKAWLKKIKALARQLGVAA (Mammal) [MMI-0500]”: the “% activity” value in [1] is on record as 113%; in [2] it was 109%; in experiment [3], 109%; in [4], 102%; in [5], 119%; in [6], 109%. Also, the “% activity” value in experiment [7] was found to be 116%; in experiment [8] it was 105%; in [9], 103%; in [10], 107%; in [11] it was 104%; in experiment [12], 114%. The “% activity” value in [13] is listed as 117%.
As for KAFAKLAARLYRKALARQLGVAA [MMI-0400], the “% activity” value in experiment [14] stood at 228%; in experiment [2], 116%; in experiment [5], 114%; in [15] it was 105%; in [16], 109%; in experiment [8], 112%. Besides, the “% activity” value in [17] was 117%; in experiment [18] it was 121%; in experiment [19] it was 102%; in experiment [11] it was 119%; in [20] it was 119%; in [21] it was 119%. The “% activity” value in [12] was determined as 115%; in experiment [22], 121%; in experiment [23], 105%; in [24] it was 105%; in experiment [25], 116%; in experiment [26] it was 119%.
